Data on 34 compounds can be found in article PMC4009755, “High-Throughput Screen of Natural Product Libraries for Hsp90 Inhibitors” (Biology, 2014).

Bounds are passed on as bounds.

The target in the experiment is Hsp90 chaperone machinery present in rabbit reticulocyte lysate. In words: Hsp90-dependent refolding of thermally denatured luciferase in rabbit reticulocyte lysate (high-throughput screen and titration). The class given is biochemical. Conditions: estimate; titration from 25 µg/mL in three-fold dilutions, repeated twice; rabbit reticulocyte lysate. The protocol:
Rabbit reticulocyte lysate, prepared by lysing one volume of packed reticulocytes in two volumes of deionized water, followed by centrifugation for twenty minutes at 15,000 × g, was purchased from Green Hectares (Oregon, WI, USA).
Recombinant luciferase from Promega was diluted to 0.5 mg/mL in buffer consisting of 25 mM Tricine–HCl (pH 7.8), 8 mM MgSO4, 0.1 mM EDTA, and 10 mg/mL acetylated BSA. Next, the solution was adjusted to include 10% glycerol and 1% Triton X-100. Finally, the luciferase solution was heated to ~41°. Once the activity of the luciferase reached ~1% of its initial value, the mixture was placed on ice, or flash frozen in liquid nitrogen and placed at −80° for storage.
To prepare the denatured luciferase for use in re-folding assays, 125 µL of the 0.5 mg/mL mixture was added into a 10 mL mixture containing 80 mM Tris HCl, pH 7.7, 8 mM Mg(OAc)2, 300 mM KCl, 12 mM ATP, and 20 mM creatine phosphate, and 0.8 mg/mL creatine phosphokinase.
The assay buffer, which contains the luciferase substrate luciferin, consisted of 75 mM Tricine-HCl, pH 7.8, 24 mM MgSO4, 300 µM EDTA, 2 mM DTT, 313 µM D-luciferin, 640 µM coenzyme A, 660 µM ATP, 150 mM KCl, 10% (v/v) Triton X-100, 20% (v/v) glycerol, and 3.5% DMSO.
The libraries were screened for compounds that inhibited the refolding of thermally denatured luciferase using a high-throughput assay carried out with a slight modification of the method previously described. Briefly, compounds were reconstituted in 100% DMSO. Stocks of compounds purchased from Microsource, TimTec, Biofocus and BioMol were reconstituted to a concentration of 1 mg/mL. The stocks were diluted 40-fold into nano-pure water with the compounds being used at a final concentration of 12.5 µg/mL for the assay. Analyticon compounds (0.2 µmol) were reconstituted to a concentration of 4 mM, and were used at a final concentration of 40 µM in the assay. Assays were performed in 96-well microplates. To each well was added 30 µL of the water/DMSO compound solution, 15 µL of the reticulocyte lysate preparation, and 15 µL of the luciferase reagent. The plates were agitated and then allowed to incubate at 25 °C for one to three hours. After the incubation, 60 µL of assay buffer containing luciferin was added to each well. The plates were then read in a Molecular Devices LMaxII^384 microplate reader, and luminescence was measured in relative light units, with an integration time of 10 s. Compounds that inhibited luciferase refolding by approximately fifty percent or greater were then titrated into a refolding reaction containing native luciferase, to eliminate false positive hits that were direct inhibitors of luciferase as previously described. Compounds were classified as a potential Hsp90 inhibitor if they inhibited luciferase refolding by 60% or greater and there was no inhibition of the activity of native luciferase at the compound’s IC50 (concentration of the compound that inhibits luciferase refolding by 50%).
The titrations were repeated twice. For a more accurate determination of the IC50s for the compounds studied in Section 3.2.1 of this manuscript, a two-fold […] series of the compounds were used in triplicate, with the experiment being repeated three times.
Usually IC50 stands for the concentration needed to halve the response being measured. Turning to `N=c1ccn2c(n1)O[C@H]1[C@H](O)[C@H](CO)O[C@H]12` [Compound 55, (2S,3R,3aS,9aR)-2-(hydroxymethyl)-6-imino-2,3,3a,9a-tetrahydro-6H-furo[2',3':4,5]oxazolo[3,2-a] pyrimidin-3-ol], the IC50 was roughly 50 µM.

With `CN1CC[C@@]2(C)c3cc(O)ccc3N(C)[C@@H]12` [Compound 56, (−)-Eseroline], the half-maximal inhibitory concentration (IC50) is 50 to 90 µM.

Consider `C/C=C/C=C/c1cc2cc3c(c(O)c2c(=O)[nH]1)[C@@]1(CC3)C(=O)c2c(O)c3c(c(O)c2C1=O)C(=O)C(OC)=CC3=O` [Compound 58, Fredericamycin], for which the IC50 is roughly 3 µM.

For `COc1cc2c(cc1OC)-c1c(O)c(OC)cc3c1[C@H](C2)N(C)CC3` [Compound 62, Thaliporphine], the IC50 is roughly 9 µM.

Take `COc1cc2c(cc1O)C[C@H]1c3c(cc(OC)c(O)c3-2)CCN1C` [Compound 63, Isoboldine]: the IC50 was 30 to 80 µM.

As to `COc1cc2c(cc1O)-c1c(O)c(OC)cc3c1[C@H](C2)N(C)CC3` [Compound 64, Bracteoline], the IC50 is roughly 80 µM.

On to `COc1cc2c(cc1OC)-c1c(OC)c(OC)cc3ccnc(c13)C2=O` [Compound 65, 7-oxoglaucine], for which the IC50 was roughly 80 µM.

In the case of `COc1cc2c(cc1OC)C(Cc1ccc(OC)c(OC)c1Oc1cc3c(cc1OC)-c1c(OC)c(OC)cc4c1[C@H](C3)N(C)CC4)N(C)CC2` (stereo partly shown) [Compound 69], the IC50 was greater than 30 µM.

For `COc1ccc2cc3[n+](cc2c1OC)CCc1cc2c(cc1-3)OCO2` [Compound 71, Berberine], the half-maximal inhibitory concentration (IC50) is roughly 40 µM.

Take `COc1cc2c(cc1OC)-c1c(OC)c(OC)c(C=O)c3c1[C@H](C2)N(C)CC3` [Compound 72, 3-Formyl-glaucine]: the IC50 is 8 to 20 µM.

`COc1ccc2c(c1OC)CN(C)c1c-2ccc2cc3c(cc12)OCO3` [Compound 73]: the IC50 was roughly 40 µM.

In the case of `CC1(C)CCC2=C(O1)c1ccccc1C(=O)C2=O` [Compound 79, β-Lapachone], the IC50 is roughly 20 µM.

In the case of `CNC1CC(Oc2cc(C)cc(CO)c2C2=C(SCC(NC(C)=O)C(=O)O)C(=O)c3c(O)cccc3C2=O)OC(C)C1O` (stereo not shown) [Compound 82], the IC50 is roughly 10 µM.

Take `CC1=CC(=O)c2c(O)cccc2C1=O` [Compound 84, Plumbagin]: the IC50 is less than 0.05 µM.

For `O=C1c2ccccc2C(=O)c2c(O)c(O)cc(O)c21` [Compound 86, 1,2,4-trihydroxyanthracene-9,10-dione], the 50% inhibitory concentration (IC50) was 40 to 100 µM.

Regarding `Cc1cc(O)c2c3c(ccc2c1)C(=O)c1c(O)cccc1C3=O` [Compound 87, Tetrangulol G2], the IC50 is roughly 20 µM.

Turning to `COc1cccc2c1C(=O)c1c(O)c3c(c(O)c1C2=O)C[C@@](O)([C@@H](C)O)C[C@@H]3O` [Compound 88, Dihydodaunomycinone], the IC50 was greater than 60 µM.

Regarding `CO[C@H]1[C@@H](OC)C[C@H](C)[C@@H](OC)C2=CC(=O)C=C(NC(=O)/C(C)=C/C=C\[C@H](OC)[C@@H](OC(N)=O)/C(C)=C/[C@@H]1C)C2=O` [Compound 91, Herbimycin], the IC50 was roughly 40 µM.

Turning to `C=CC(C1=CC(=O)C=CC1=O)c1ccccc1` (stereo not shown) [Compound 92, Dalbergione], the IC50 is roughly 2 µM.

In the case of `C=C[C@@H](C1=CC(=O)C(OC)=C(OC)C1=O)c1ccccc1` [Compound 94, 3'4'-Dimethoxydalbergione], the IC50 was roughly 5 µM.

`C[C@H]1c2ccoc2CC2[C@H]1CCC1[C@@](C)(CC(=O)O)CCC[C@]21C` (stereo partly drawn) [Compound 95, 2-((4R,6aS,7R,11bR)-4,7,11b-trimethyl-1,2,3,4,4a,5,6,6a,7,11,11a,11b-dodecahydro-phenanthro[3,2-b]furan-4-yl) acetic acid]: the IC50 was greater than 75 µM.

`C=C1CC[C@H](O)C/C1=C/C=C1\CCC[C@]2(C)[C@@H]([C@H](C)/C=C/[C@H](C)C(C)C)CC[C@@H]12` [Compound 97, Vitamin D2]: the IC50 is roughly 60 µM.

Take `CN(C)[C@@H]1C(O)=C(C(=O)NCN2CCCC2)C(=O)[C@@]2(O)C(O)=C3C(=O)c4c(O)cccc4[C@@](C)(O)[C@H]3C[C@@H]12` [Compound 100, Rolitetracycline]: the IC50 was roughly 20 µM.

Consider `CC(=O)OC1CC2C(COC(=O)CC(C)C)=COC(OC(=O)C(C)C)C2C1(O)CCl` (stereo not shown) [Compound 101], for which the IC50 is roughly 50 µM.

On to `CC(=O)OC1C=C(CO)C(=O)C(OC(=O)CC(C)C)C1C(C)C` (stereo not shown) [Compound 102], for which the IC50 was roughly 50 µM.

With `C/C=C/C(=O)c1c(OC)cc2cc(OC)cc(OC)c2c1OC` [Compound 103, (E)-1-(1,3,6,8-tetramethoxy-naphthalen-2-yl)but-2-en-1-one], the IC50 is roughly 5 µM.

On to `C=C1C2CCC3C(CCC4[C@@]3(C)CCC[C@@]4(C)C(=O)O)(C2)[C@@H]1OC(=O)/C(C)=C\C` (stereo partly drawn) [Compound 105, (4R,7R,11bS)-4,11b-dimethyl-7-(((Z)-2-methylbut-2-enoyl)oxy)-8-methylenetetradecahydro-6a,9-methanocyclohepta[a]naphthalene-4-carboxylic acid], for which the IC50 was roughly 40 µM.

Take `C/C=C(\C)C(=O)O[C@H]1C(=O)C(CO)=C[C@H](OC(C)=O)[C@@H]1C(C)C` [Compound 107]: the IC50 is roughly 15 µM.

Regarding `CC(C)=CCc1cc2c(c(CC=C(C)C)c1O)OCC1c3ccc(O)cc3OC21` (stereo not shown) [Compound 112], the IC50 is roughly 50 µM.

Consider `CC1=C(/C=C/C(C)=C\C=C\C(C)=C\C(=O)O)C(C)(C)CCC1` [Compound 113, 9-Cis-retinoic acid], for which the half-maximal inhibitory concentration (IC50) was 30 to 50 µM.

In the case of `CCCCCC(O)/C=C/[C@H]1C(=O)C=C[C@@H]1C/C=C\CCCC(=O)O` (stereo partly shown) [Compound 114, Prostaglandin J2], the IC50 is 75 to 100 µM.

With `Cc1cc(O)c2c(=O)c3c(O)cc(O)c4c5c(O)cc(O)c6c(=O)c7c(O)cc(C)c8c1c2c(c34)c(c78)c65` [Compound 115, Hypericin], the IC50 was 50 to 75 µM.

Regarding Antibiotic A83586C [Compound 75], the IC50 was roughly 10 µM.

With Cyclopeptide L-156373 [Compound 77], the IC50 is roughly 10 µM.
